{
  "source": "paper PMC5316997",
  "about": "“Structure and dynamics of Type III periplasmic proteins VcFhuD and VcHutB reveal molecular basis of their distinctive ligand binding properties” (Scientific Reports, 2017)",
  "target": "T1, VcHutB (Vibrio cholerae, UniProt A0A0H3AE70)",
  "T1 construct": "gene hutB",
  "assay": "biochemical",
  "data": [
    {"smiles": "C=CC1=C(C)C2=Cc3c(C=C)c(C)c4[n]3[Fe]([Cl])[n]3c(c(C)c(CCC(=O)O)c3=CC3=NC(=C4)C(C)=C3CCC(=O)O)=CC1=N2", "note": "[hemin]", "values": [
      {"measurement": "Kd", "result": 200, "unit": "µM"}
    ]}
  ]
}
